Results on one molecule are retold here after paper PMC3674150 (Cancer research, 2013).

Bounds are passed on as bounds.

For experiment [1], the system named is BCR-ABL signaling (pCrkL) in K562 cells. As to conditions: 2 h treatment at 10 nM, immunoblot. For orientation: A western blot detects proteins with antibodies after separation by electrophoresis.
Experiment [2] has as its system BCR-ABL signaling (pSTAT5) in primary CML cells. As to conditions: 100 nM for 4 h, FACS.

With `Cc1nc(Nc2ncc(C(=O)Nc3c(C)cccc3Cl)s2)cc(N2CCN(CCO)CC2)n1` [dasatinib], the “pCrkL level after treatment compared to untreated/pretreatment” value in experiment [1] is listed as < 10%. Moreover, in experiment [2], the “pSTAT5 at 24 h post expanded washout” value is given as “fully rescued to pretreatment levels” and the “pSTAT5 at 24 h post standard washout” value is reported as “partially”.
